# What was measured:
# Chains of the proteins cited; added tags and fusions are not shown.
# UniProt P08908, whole entry: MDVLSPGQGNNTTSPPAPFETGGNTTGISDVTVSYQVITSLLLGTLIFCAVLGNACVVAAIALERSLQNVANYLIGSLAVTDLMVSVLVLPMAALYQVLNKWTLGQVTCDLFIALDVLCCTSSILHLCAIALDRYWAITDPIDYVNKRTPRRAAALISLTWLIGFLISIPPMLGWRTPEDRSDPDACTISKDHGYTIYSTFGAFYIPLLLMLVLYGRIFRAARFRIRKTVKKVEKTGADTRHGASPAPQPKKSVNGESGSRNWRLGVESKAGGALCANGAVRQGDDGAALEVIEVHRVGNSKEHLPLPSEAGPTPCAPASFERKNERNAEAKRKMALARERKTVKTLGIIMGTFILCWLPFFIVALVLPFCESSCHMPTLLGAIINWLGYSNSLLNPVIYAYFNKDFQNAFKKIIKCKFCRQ
# UniProt P31652, whole entry: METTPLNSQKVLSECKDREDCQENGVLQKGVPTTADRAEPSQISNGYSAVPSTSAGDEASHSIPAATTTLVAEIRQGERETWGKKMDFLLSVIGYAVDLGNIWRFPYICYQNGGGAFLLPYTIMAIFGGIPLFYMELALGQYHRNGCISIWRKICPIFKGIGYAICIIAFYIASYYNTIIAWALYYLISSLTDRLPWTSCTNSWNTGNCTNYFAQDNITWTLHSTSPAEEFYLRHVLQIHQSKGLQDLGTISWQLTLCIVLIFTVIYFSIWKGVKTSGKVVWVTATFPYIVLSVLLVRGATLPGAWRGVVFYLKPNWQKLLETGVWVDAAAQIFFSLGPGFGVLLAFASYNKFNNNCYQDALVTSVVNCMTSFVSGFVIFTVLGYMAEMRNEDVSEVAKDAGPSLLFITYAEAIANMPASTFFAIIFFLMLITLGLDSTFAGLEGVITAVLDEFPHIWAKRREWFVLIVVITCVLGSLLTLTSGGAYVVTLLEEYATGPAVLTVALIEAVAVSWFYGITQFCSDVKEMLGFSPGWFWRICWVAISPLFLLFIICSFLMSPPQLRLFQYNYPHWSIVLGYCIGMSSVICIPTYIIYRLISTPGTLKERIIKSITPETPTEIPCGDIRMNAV
# UniProt P28223, whole entry: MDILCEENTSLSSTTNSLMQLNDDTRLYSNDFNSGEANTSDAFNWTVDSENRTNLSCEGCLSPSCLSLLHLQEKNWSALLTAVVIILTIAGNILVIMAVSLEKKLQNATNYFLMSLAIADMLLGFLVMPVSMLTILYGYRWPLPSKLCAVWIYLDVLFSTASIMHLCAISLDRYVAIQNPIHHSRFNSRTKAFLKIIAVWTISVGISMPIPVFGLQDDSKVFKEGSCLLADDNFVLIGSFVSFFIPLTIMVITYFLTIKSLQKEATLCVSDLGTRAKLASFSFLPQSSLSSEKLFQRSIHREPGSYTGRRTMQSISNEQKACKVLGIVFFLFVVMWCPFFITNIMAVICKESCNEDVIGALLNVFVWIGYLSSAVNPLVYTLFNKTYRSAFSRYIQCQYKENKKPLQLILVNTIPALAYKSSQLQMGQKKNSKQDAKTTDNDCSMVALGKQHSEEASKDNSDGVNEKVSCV
# [1] = biological target: 5-HT1A receptor (Homo sapiens, UniProt P08908); assay: 5-HT1A calcium mobilization assay in Gα16-CHO cells; type: cell-based
# [2] = biological target: SERT (Rattus norvegicus, UniProt P31652); assay: SERT-mediated release, rat brain synaptosomes
# [3] = biological target: 5-HT2A receptor (Homo sapiens, UniProt P28223); assay: cell-based; conditions: HEK293, read-out: 5-HT2A Emax
SMILES,EC50 [1] [nM],EC50 [2] [nM],Emax [3] [%]
"COc1ccc2[nH]cc(CCN(C)C)c2c1 [Compound 7, N,N-dimethyl-5-methoxytryptamine]",791 ± 133,,
"CN(C)CCc1c[nH]c2ccc(O)cc12 [Compound 16, N,N-dimethyl-5-hydroxytryptamine]",,30.5 ± 8.6,100 ± 2
